{"sequences": {"note": "Amino acid sequences for entries named in this document (tags omitted).", "UniProt P42866, whole entry": "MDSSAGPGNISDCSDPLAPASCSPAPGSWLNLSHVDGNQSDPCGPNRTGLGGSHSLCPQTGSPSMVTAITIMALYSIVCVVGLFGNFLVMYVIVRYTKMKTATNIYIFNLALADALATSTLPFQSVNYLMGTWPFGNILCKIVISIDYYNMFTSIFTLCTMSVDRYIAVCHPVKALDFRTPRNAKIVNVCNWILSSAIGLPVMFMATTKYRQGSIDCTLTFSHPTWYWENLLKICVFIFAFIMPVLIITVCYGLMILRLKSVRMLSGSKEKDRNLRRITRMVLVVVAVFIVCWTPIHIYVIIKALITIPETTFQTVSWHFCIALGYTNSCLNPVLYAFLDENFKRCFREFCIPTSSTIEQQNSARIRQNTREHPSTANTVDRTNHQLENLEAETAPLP"}, "source": "paper PMC11091828", "about": "(Journal of medicinal chemistry, 2023)", "key": {"mMOR [1]": {"biological_target": "T1, mMOR (Mus musculus, UniProt P42866)", "experiment": "BRET Nb33 recruitment at MOR, HEK 293T cells", "type": "cell-based", "conditions": "percentage of DAMGO"}, "mMOR [2]": {"biological_target": "T1, mMOR", "experiment": "BRET arrestin-3 recruitment at MOR with overexpressed GRK2, HEK 293T cells", "type": "cell-based", "conditions": "percentage of DAMGO"}}}
{"molecule": "CCC1(CC)CC(OCCCN2CCN(c3cccc(C(F)(F)F)n3)CC2)(c2ccccn2)CCO1", "note": "(centres unmarked) [compound 102, 1-(3-((2,2-Diethyl-4-(pyridin-2-yl)tetrahydro-2H-pyran-4-yl)oxy)propyl)-4-(6-(trifluoromethyl)pyridin-2-yl)piperazine]", "values": [{"measurement": "MOR Nb33 recruitment response at 10μM", "setting": "mMOR [1]", "result": "15.5 % at 10μM (n=3)"}, {"measurement": "MOR arr3 recruitment (+ GRK2) response at 10μM", "setting": "mMOR [2]", "result": "33.5% at 10μM (n=3)"}]}
